Results taken from US20220090089A1.

Target: glycosylphosphatidyl-inositol (GPI)-anchored EGFP on HEK293T cells
Assay: flow cytometry screen of single phage nanobody clones on EGFP-GPI expressing HEK293T cells; ratio of Q2 to Q1 signal

Substance “94 phage nanobody clones derived from PANL selection round 3” has a percent of clones that recognized EGFP-GPI+ cells with strong binding (Q2/Q1>1) greater than 95%.
